Source: ChEMBL document CHEMBL1275556, “High prevalence of plasmid-mediated quinolone resistance genes qnr and aac(6')-Ib-cr in clinical isolates of Enterobacteriaceae from nine teaching hospitals in China” (2008)

Experiments:
[1] = system: Escherichia coli; details: J53
[2] = system: Escherichia coli; details: FJ3T
[3] = system: Citrobacter freundii; details: PU55T
[4] = system: Klebsiella pneumoniae; details: GZ40T

Measured: MIC

GENTAMICIN
0.5 µg/mL: all assays above
